Yeast mating assay B: variants of the scFv Ab-14

Values reported by Li et al. 2023, doi:10.1038/s41467-023-39022-2 (FLAb copy).

Antigen: PDVDLGDISGINAS, a 14-residue peptide of the SARS-CoV-2 spike HR2 region.

Each scFv is VH, three GGGGS repeats, VL, as in the parent Ab-14, and differs from it in the CDRs of the heavy chain only.
VH: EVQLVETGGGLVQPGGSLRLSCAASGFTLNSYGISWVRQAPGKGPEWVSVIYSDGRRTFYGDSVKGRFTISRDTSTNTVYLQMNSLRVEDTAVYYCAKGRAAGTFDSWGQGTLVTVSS
VL: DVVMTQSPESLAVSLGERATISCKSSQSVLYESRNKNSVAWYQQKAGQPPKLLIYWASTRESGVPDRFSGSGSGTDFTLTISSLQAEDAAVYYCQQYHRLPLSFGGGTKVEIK

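These sequences belong to a second round, designed from the earlier measurements on random variants of the parent. Several design methods are mixed in this list. In AlphaSeq, yeast of one mating type display the scFv and yeast of the other type display the target. After mating in shaken culture at 30 °C for 16 h, diploids were selected and their barcode pairs sequenced. Scores were corrected for input abundance and mapped to Kd with protein pairs of known affinity run in the same pool. Mating was done six times.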

Each variant is given by its three heavy chain CDRs, as the data file delimits them; those of the parent are GFTLNSYGIS, VIYSDGRRTFYGDSVK, GRAAGTFDS. Variants here have at most six changes. The Kd shown is the geometric mean over detected replicates; a lower Kd is a better binder. "nd" means that the variant was in the library but no mating with the target was seen in any replicate; the authors take this as a sign of poor binding, and no number exists. The parent sequence was in this pool as ten entries: three were never detected, three once, and four in most replicates, with averages from 2.2 nM to 240 nM. A sequence measured in both rounds can read differently, since the two assays cover different ranges. The authors averaged sequences with at least three values out of six and counted those with two or fewer as poor binders. As a blank, each scFv also met three strains without target: over all heavy chain designs, 1% of these pairings were detected, typically at 120 nM and seldom below 7.0 nM. Also given: how often the same scFv was detected with the empty control strains.

For GFELNEYGIS | VIYSDGRRTFYADSVK | GKAAGTFDK, the assay gave 2.3 nM (6 of 6 replicates; controls 1 of 18). The variant GFDLNSYGIS | VIYSDGRRTFYGDSVK | GRAANTFDQ gave 600 nM (1 of 6 replicates; controls 0 of 18). The variant GFDLNSYGIS | VIYSDGRRTFYSDSVK | GAAGGTFDS gave 48 nM (5 of 6 replicates; controls 0 of 18). The variant GNTLNSYGIS | VIYSDGRRTAYGDSVK | GRAADTFDS gave 610 pM (6 of 6 replicates; controls 0 of 18). The variant GFTLNSYGIS | VIYSDGRRTFYTDSVK | GRAADHFDS showed nd (0 of 6 replicates; controls 0 of 18). For GFTLNSYGIS | VIYSDGYRTFYGDDVK | GRAAGQFDS, the assay gave nd (0 of 6 replicates; controls 0 of 18).

With GFDLNSYGIS | VIYSDGRRTFYADTVK | GRTAGTFDS the result was 610 pM (6 of 6 replicates; controls 0 of 18). The variant GFTLNSYGIS | VIYADGRRTFYIDSVK | GRAAGTFDL showed 5.6 nM (6 of 6 replicates; controls 1 of 18). With GFTLNSYGIS | VIYSDGRRTFYSDSVK | GKLAGTFDS the result was 6.3 nM (6 of 6 replicates; controls 0 of 18). The variant GFDLNSYGIS | VIYSDGRRTFYGDSVK | GRAAWTFNK showed nd (0 of 6 replicates; controls 0 of 18). For GFQLNSYGIS | VIYSDGRRTFYKDSVK | GEAAGTFDS, the assay gave 38 nM (3 of 6 replicates; controls 0 of 18). The variant GFDLNSYGIS | VIYSDGRRSFYGDSVK | GEAAGTFDS showed 3.0 nM (6 of 6 replicates; controls 0 of 18).

The variant GFNLNSYGIS | VIYSDGRRTFYADAVK | GKTAGTFDS showed 4.2 nM (6 of 6 replicates; controls 0 of 18). For GFDLNSYGIS | VIYSDGRRTFYGDSVK | GRAAGSFDS, the assay gave nd (0 of 6 replicates; controls 0 of 18). The variant GFNPNSYGIS | VIYSDGRRTFYGDSVK | GRAAGTFDS gave nd (0 of 6 replicates; controls 0 of 18). The variant GFSLNNYGIS | VIYSDGRRTFYGDKVK | GRQAGTFDS showed 17 nM (5 of 6 replicates; controls 0 of 18). The variant GFNLNSYGRS | VIYSDGRRTFYGDSVK | GRAAGTFDS showed nd (0 of 6 replicates; controls 0 of 18). With GFTLNSYGIS | VIYSDGRRQFYGDSVK | GRAIGTFVS the result was nd (0 of 6 replicates; controls 0 of 18).

With GFDLNSYGIS | VIYSDGRRTFYGDSVK | GRTAGSFDV the result was 1.5 nM (6 of 6 replicates; controls 1 of 18). The variant GFTLNSYGIS | VIYADGRRTFYGDSVK | GWAAGTFKM showed nd (0 of 6 replicates; controls 0 of 18). The variant GFTLNSYGIS | VIYSDKRRTFYGDSVK | GDAAGTFDS gave nd (0 of 6 replicates; controls 0 of 18). The variant GNTLNSYGIS | VIYSDGRRTFYGDSVK | GTAAGTFLS showed nd (0 of 6 replicates; controls 0 of 18). The variant MFDLNSYGIS | VIYSDGRRTFYSDSVK | GEAAGTFDS gave 4.1 nM (4 of 6 replicates; controls 0 of 18). For GFHLNSYGIS | VIYSDGRRTFYTDSVK | GRAAGTFDS, the assay gave 120 nM (3 of 6 replicates; controls 0 of 18).

For GFTLNEYGIS | VIYSDGRRTAYGDSVK | GQAAGTADS, the assay gave nd (0 of 6 replicates; controls 0 of 18). The variant KFNLNSYGIS | VIYSDGRRTFYIDSVK | GQTAGTFDS gave 170 nM (1 of 6 replicates; controls 0 of 18). For GFTLNSYGIS | VIYSDGRRTFYIDSVK | GRWAGTFDS, the assay gave 87 nM (1 of 6 replicates; controls 0 of 18). For GFQLNEYGIS | VIYSDGRRTFYQDSVK | GEAAGTFDS, the assay gave 700 pM (6 of 6 replicates; controls 0 of 18). The variant GFTLNEYGIS | VIYSDGRRTFYGDSVK | GRAAGTFGT gave 53 nM (6 of 6 replicates; controls 1 of 18). The variant GFDLNSYGIS | VIYSDGRRTAYGDSVK | GRVAGTFDS gave 910 pM (6 of 6 replicates; controls 0 of 18).

The variant GFHLNSYGIS | VIYSDGRRTFYTDSVK | GEAAGTFDS gave 3.2 nM (3 of 6 replicates; controls 0 of 18). With GFTLESYGIS | VIYSDCRRTFYGDSVK | GQAAGMFDS the result was 170 nM (1 of 6 replicates; controls 1 of 18). For GFELNEYGIS | VIYSDGRRTFYMDSVK | GRTAGTFDS, the assay gave 2.9 nM (6 of 6 replicates; controls 0 of 18). The variant GFTLLSYGIS | VIYSDGSRTFYGDKVK | GRAAGTFDS showed 300 nM (1 of 6 replicates; controls 0 of 18). For GFTLNSYGIS | VIYSDGVRTFYEDSVK | GRFAGTFDS, the assay gave 110 nM (2 of 6 replicates; controls 0 of 18). The variant GFTLQSYGIS | VIYSDGRRTFYGDSVK | TDAAGTFDS gave nd (0 of 6 replicates; controls 0 of 18).

The variant GFWLNEYGIS | VIYSDGRRTFYADSVK | GRMAGTFDS gave 5.4 nM (6 of 6 replicates; controls 0 of 18). The variant GFTLGSYGIS | VIYSDGRRTFYGDSVK | GRAAGNFDS showed 70 nM (3 of 6 replicates; controls 1 of 18). For GFDLNSYGIS | VIYSLGRRTFYFDSVK | GRAAGWFNS, the assay gave nd (0 of 6 replicates; controls 0 of 18). The variant GFTLKSYGIS | VIYSDGRRTFYDDSVK | GTLAGTFDS gave 3.3 nM (6 of 6 replicates; controls 0 of 18). With GFELNSYGRS | VIYSDGRRTFYGDSVK | GRAAGTFDS the result was 91 nM (1 of 6 replicates; controls 0 of 18). The variant GFDLNSYGIS | VIYSDGRRTFYGDSVK | GQAAGTFDN showed 9.8 nM (6 of 6 replicates; controls 1 of 18).

The variant GRALNSYGIS | VIYADGQRTFYGDSVK | GRAAGTFDP showed nd (0 of 6 replicates; controls 0 of 18). The variant GFTLEKYGIS | VIYADGRRTFYGDSVK | GRAAGTFDS gave 2.7 nM (6 of 6 replicates; controls 2 of 18). The variant GFTLESYGIS | VIYSDGRRTFYADKVK | GRTAGTFDS showed nd (0 of 6 replicates; controls 1 of 18). With GFTLNSYGIS | VIYSDGKRTFYSDSVK | GKVAGTFDS the result was 1.6 nM (6 of 6 replicates; controls 0 of 18). For GFSLNDYGIS | VIYSDGRRTFYADSVK | GRNAGTFDS, the assay gave 540 pM (6 of 6 replicates; controls 0 of 18).

The last 5 entries again:

The variant GRALNSYGIS | VIYADGQRTFYGDSVK | GRAAGTFDP showed nd (0 of 6 replicates; controls 0 of 18).
The variant GFTLEKYGIS | VIYADGRRTFYGDSVK | GRAAGTFDS showed 2.7 nM (6 of 6 replicates; controls 2 of 18).
The variant GFTLESYGIS | VIYSDGRRTFYADKVK | GRTAGTFDS showed nd (0 of 6 replicates; controls 1 of 18).
The variant GFTLNSYGIS | VIYSDGKRTFYSDSVK | GKVAGTFDS showed 1.6 nM (6 of 6 replicates; controls 0 of 18).
The variant GFSLNDYGIS | VIYSDGRRTFYADSVK | GRNAGTFDS showed 540 pM (6 of 6 replicates; controls 0 of 18).